Chains of the proteins cited; added tags and fusions are not shown.
UniProt P08183, whole entry: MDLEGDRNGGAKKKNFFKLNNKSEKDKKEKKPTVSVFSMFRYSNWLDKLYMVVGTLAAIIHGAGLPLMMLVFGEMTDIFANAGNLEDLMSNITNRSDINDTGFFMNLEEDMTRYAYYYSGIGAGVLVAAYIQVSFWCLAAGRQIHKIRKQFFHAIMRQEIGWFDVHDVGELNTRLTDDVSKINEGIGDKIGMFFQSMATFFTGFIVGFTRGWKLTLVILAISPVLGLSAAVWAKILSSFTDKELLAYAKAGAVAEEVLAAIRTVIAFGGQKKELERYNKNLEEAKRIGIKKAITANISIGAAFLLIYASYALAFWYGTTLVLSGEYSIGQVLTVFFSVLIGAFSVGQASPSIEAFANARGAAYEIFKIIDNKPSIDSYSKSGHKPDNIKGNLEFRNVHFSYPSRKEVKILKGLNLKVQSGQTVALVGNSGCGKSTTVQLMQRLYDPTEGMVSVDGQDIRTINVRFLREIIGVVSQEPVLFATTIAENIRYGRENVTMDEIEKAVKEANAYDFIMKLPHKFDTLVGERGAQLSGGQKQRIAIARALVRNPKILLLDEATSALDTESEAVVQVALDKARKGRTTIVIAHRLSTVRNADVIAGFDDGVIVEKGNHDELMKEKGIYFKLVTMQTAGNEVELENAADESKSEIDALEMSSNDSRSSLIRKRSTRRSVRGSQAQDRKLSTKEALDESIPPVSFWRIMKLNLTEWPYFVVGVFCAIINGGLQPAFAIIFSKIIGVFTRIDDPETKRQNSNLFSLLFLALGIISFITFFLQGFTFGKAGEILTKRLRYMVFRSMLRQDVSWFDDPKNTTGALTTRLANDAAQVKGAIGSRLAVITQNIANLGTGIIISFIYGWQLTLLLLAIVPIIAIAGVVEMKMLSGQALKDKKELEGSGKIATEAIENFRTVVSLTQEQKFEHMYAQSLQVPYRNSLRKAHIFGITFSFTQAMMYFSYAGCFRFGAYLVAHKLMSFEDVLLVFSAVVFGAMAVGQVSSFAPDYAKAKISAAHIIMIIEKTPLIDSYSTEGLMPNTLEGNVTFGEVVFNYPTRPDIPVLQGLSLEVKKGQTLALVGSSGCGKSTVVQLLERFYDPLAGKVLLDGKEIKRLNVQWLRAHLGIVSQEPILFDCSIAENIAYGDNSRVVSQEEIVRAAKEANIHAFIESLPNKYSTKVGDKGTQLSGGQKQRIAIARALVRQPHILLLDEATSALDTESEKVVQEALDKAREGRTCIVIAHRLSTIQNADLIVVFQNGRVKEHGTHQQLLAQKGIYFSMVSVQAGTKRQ

According to patent US20070111328A1, “Scintillation proximity assay for the identification of P-glycoprotein modulators” (priority 2005, published 2007):

Target: P-glycoprotein (P-gp) (Homo sapiens, UniProt P08183)
Assay: Scintillation proximity assay (SPA): competition with [3H]vinblastine binding to P-gp in KB-V1 cell membranes
Conditions: test compound 10 μM final concentration; FIG. 8; mean of triplicates

| Molecule | effect of test compound on P-gp specific binding signal |
| --- | --- |
| C[C@H]1O[C@@H](O[C@H]2[C@@H](O)C[C@H](O[C@H]3[C@@H](O)C[C@H](O[C@H]4CC[C@@]5(C)[C@H](CC[C@@H]6[C@@H]5C[C@@H](O)[C@]5(C)[C@@H](C7=CC(=O)OC7)CC[C@]65O)C4)O[C@@H]3C)O[C@@H]2C)C[C@H](O)[C@@H]1O [digoxin] | do not appear to be able to alter the P-gp signal |
| LY335979 | strongly inhibited |
